# Test results from patent US20190225966A1, “Treatment for Glaucoma and Other Eye Diseases” (University of North Texas Health Science Center at Forth …, priority 2016, published 2019).
# Experiments:
# Tg-MYOC^Y437H mice [1] = format: in vivo
# Tg-MYOC^Y437H mice [2] = details: via enhancing myocilin secretion and reducing ER stress in TM; cited from earlier work
# [3] = tested on: TM-3 cells stably expressing DsRed tagged Y437H mutant MYOC; assay: Western blot and immunostaining of myocilin, ER stress and autophagy markers in TM cells expressing mutant myocilin; format: cell-based, Human
# [4] = TM-3 cells expressing mutant myocilin, 24 hours, trehalose 100 mM
compound,measurement,setting,value
Tat-Beclin 1 D11 (RRRQRRKKRGYGGDHWIHFTANWV),elevated IOP versus contralateral eye treated with TS,"Tg-MYOC^Y437H mice [1]; topical eye drops twice daily for 2 weeks, IOP weekly in the night, n=6",reduced elevated IOP
"O=C([O-])CCCc1ccccc1.[Na+] [PBA, Sodium 4-phenylbutyrate]","elevated IOP (inventors' earlier work, refs 2, 7)",Tg-MYOC^Y437H mice [2],reduces elevated IOP
same,mutant myocilin (Western blot for MYOC),"[3]; TM-3 cells expressing mutant myocilin, PBA 1 mM, TB or TB+PBA, 24 hours",reduces mutant myocilin
O=C(COc1ccc(Cl)cc1)N[C@H]1CC[C@H](NC(=O)COc2ccc(Cl)cc2)CC1 [ISRIB],mutant myocilin accumulation (Western blot),"[3]; TM-5 cells stably expressing mutant myocilin, ISRIB 100 and 200 nM, 48 hours",dramatically reduced myocilin accumulation
same,ATF4 and CHOP cellular protein levels (Western blot),"[3]; TM-5 cells stably expressing mutant myocilin, ISRIB, 48 hours",inhibited ATF4 and CHOP
same,elevated IOP versus vehicle-treated contralateral eyes,"Tg-MYOC^Y437H mice [1]; intravitreal injection 2 mM, 2 ul, 4-months-old mice, IOP after 1 week, N=5",significantly reduced elevated IOP
"OC[C@H]1O[C@H](O[C@H]2O[C@H](CO)[C@@H](O)[C@H](O)[C@H]2O)[C@H](O)[C@@H](O)[C@@H]1O [trehalose, Trehalose]","LC3BII form, marker of stimulated autophagy (Western blot)",[3]; [4],increased LC3BII form
same,mutant myocilin accumulation (Western blot),[3]; [4],reduces mutant myocilin dramatically
"Nc1ccc(-c2ccc3ncc4ccc(=O)n(-c5cccc(C(F)(F)F)c5)c4c3c2)cn1 [Torin-2, 9-(6-Amino-3-pyridinyl)-1-[3-(trifluoromethyl)phenyl]-benzo[h]-1,6-naphthyridin-2(1H)-one]",IOP versus contralateral vehicle treated eyes,"Tg-MYOC^Y437H mice [1]; eye drops topically for 1 week, N=8, P<0.001",dramatically reduced IOP
